# Literature values in US20040006094A1, “4-pyrimidinamine derivatives, pharmaceutical compositions and related methods” (priority 2000, published 2004).
# Chains of the proteins cited; added tags and fusions are not shown.
# UniProt Q16539, whole entry: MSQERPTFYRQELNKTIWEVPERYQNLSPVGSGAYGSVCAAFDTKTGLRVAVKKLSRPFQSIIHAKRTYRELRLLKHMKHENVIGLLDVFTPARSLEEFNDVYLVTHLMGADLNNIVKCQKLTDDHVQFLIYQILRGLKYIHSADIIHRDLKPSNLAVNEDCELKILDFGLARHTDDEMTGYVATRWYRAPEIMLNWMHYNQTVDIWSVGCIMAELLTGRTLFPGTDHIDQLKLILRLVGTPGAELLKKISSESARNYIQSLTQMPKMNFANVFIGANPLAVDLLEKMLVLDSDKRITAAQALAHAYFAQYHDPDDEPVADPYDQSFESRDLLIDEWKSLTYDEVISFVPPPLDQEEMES
# Target: p38 kinase (Homo sapiens, UniProt Q16539)
# Conditions: cited from earlier work
smiles,measurement,value
CCc1[nH]c(-c2ccc(OC)cc2)nc1-c1ccncc1 [SB202474],"Activity, p38 kinase",Inactive
